# Earlier results in patent US20130177627A1, “Growth inhibitory effects of nanoparticles containing triterpene glycosides or triterpenes” (priority 2011, published 2013).
# System: MDA-MB-453 human breast cancer cells
# Conditions: MDA-MB-453 (Yakes et al., 2002); cited from earlier work
substance,measurement,value
Herceptin: the antibody to Her2,sensitivity of cells to Herceptin,relatively resistant
